# Read-outs that look alike come from different tables or passages of the source.
# What was measured:
# [1] = cited from earlier work
# [2] = Forced degradation stability study of bupropion salts spiked with placebo/excipients, closed vials, 40° C./75% RH, HPLC assay and impurities; details: for Order of stability (assay) with IPA & EtOH: DS and excipients spiked with IPA & EtOH; for Order of stability (assay) with IPA & EtOH / Order of stability (assay) with water: 32 days, 40° C.; for Order of stability (assay) with water: DS and excipients spiked with water; for Stability in the forced degradation stability studies, overall: DS and spiked DS; for Order of stability (assay, % potency): salt plus excipients, 20 days, closed vial
# Protocol: The stability of the salts was evaluated based on the formation of the main degradation products (see below) as determined by HPLC analysis and the % potency (or assay) of the API, after specific time periods in the stability chamber. The effect of the addition of solvents, such as water, ethanol and isopropyl alcohol, was also studied.
# The samples of each salt and the spiked salts with the bupropion HCl XL were prepared under the conditions mentioned in Table 4. […] The stability of the bupropion salts were evaluated based on the formation of the main degradation product 3-chlorobenzoic acid (3-CBZ) and the intermediate degradation products diketone 827U76 and the ketohydroxyl derivatives (20U78 and 852U77) (Scheme 2).
# As mentioned above, the stability samples were prepared in 2 mL vials and used directly for assay and impurity analysis by HPLC without further sample preparations to minimize errors.
# [3] = Thermal analysis by TGA of bupropion salts; type: physicochemical
# Protocol: 2-5 mg of each salt was placed in an aluminium pan and covered with its lid. DSC was run for each sample at the rate of 10° C./min (for HBr salt, different rates were used to investigate for polymorphs) from 30° C. to 400° C. TGA was also used for each of the HBr, HCl, maleate and tosylate salts.
# The salts were analysed by DSC (at 10° C./min from 30° C. up to 400° C.) and the pH (aq. 0.5%), and the moisture content by KF were also measured. The TGA was performed on the HCl, maleate, tosylate and HBr salts.
# [4] = Polyethylene Glycol Alkyl Ethers, as reported by the manufacturer
# [5] = PEG-Fatty Acid Monoester Surfactants
# [6] = PEG-Sorbitan Fatty Acid Esters, as reported by the manufacturer
# [7] = Polyethylene Glycol Alkyl Phenol Surfactants, as reported by the manufacturer
substance,measurement,setting,value
PEG-2 stearyl ether,HLB,[1]; [4],4.9
Bupropion Fumarate,Order of stability (assay) with IPA & EtOH,[2]; closed vials,HCl>HBr>tosylate>maleate>fumarate
same,Order of stability (assay) with water,[2]; closed vials,tosylate>maleate>HCl>HBr>fumarate
same,"Stability in the forced degradation stability studies, overall",[2]; 40° C./75% RH,neither stable in water nor in the organic solvents IPA & EtOH
same,"Order of stability (assay, % potency)",[2]; 40° C./75% RH,HBr>HCl=tosylate>fumarate>maleate
PEG-4 laurate,HLB,[1]; [5],9.3
Bupropion succinate,Stability in the 10 days forced degradation study,"[2]; 10 days, 40° C./75% RH, closed vials, with or without excipients",not stable
same,"Stability in the forced degradation stability studies, overall",[2]; 40° C./75% RH,very poor
PEG-4 sorbitan monostearate,HLB,[1]; [6],9.6
Bupropion maleate,Order of stability (assay) with IPA & EtOH,[2]; closed vials,HCl>HBr>tosylate>maleate>fumarate
same,Order of stability (assay) with water,[2]; closed vials,tosylate>maleate>HCl>HBr>fumarate
same,"Order of stability (assay, % potency)",[2]; 40° C./75% RH,HBr>HCl=tosylate>fumarate>maleate
PEG-15-100 octyl phenol ether,HLB,[1]; [7],>10
Bupropion tosylate,Order of stability (assay) with IPA & EtOH,[2]; closed vials,HCl>HBr>tosylate>maleate>fumarate
same,Order of stability (assay) with water,[2]; closed vials,tosylate>maleate>HCl>HBr>fumarate
same,"Stability in the forced degradation stability studies, overall",[2]; 40° C./75% RH,good stability
same,"Order of stability (assay, % potency)",[2]; 40° C./75% RH,HBr>HCl=tosylate>fumarate>maleate
same,TGA: thermal stability,[3],not thermally stable
PEG-2 cetyl ether,HLB,[1]; [4],5.3
PEG-10-100 nonyl phenol,HLB,[1]; [7],>10
PEG-6 laurate,HLB,[1]; [5],11.4
PEG-10 sorbitan laurate,HLB,[1]; [6],>10
PEG-40 laurate,HLB,[1]; [5],17.9
PEG-6 sorbitan tetraoleate,HLB,[1]; [6],8.5
